The target in the experiment is T1, human PPARγ (hPPARγ) (Homo sapiens, UniProt P37231).
T1 construct: expressed in transfected cells; host or cells: CV-1 cells
In words: Transactivation reporter assay (chimeric GAL4-PPAR reporter-gene assay in CV-1 cells). The format is cell-based. The settings on record: percentage of agonistic potency relative to full agonist Pioglitazone at their respective EC50 concentration. The method, then:
Briefly, chimeric receptor expression plasmid pcDNA3-hPPARγ/GAL4 was prepared by inserting the yeast GAL4 transcription factor DNA-binding domain adjacent to the hPPARγ LBD domain. The reporter plasmid, p(UAS)5-tk-luc, was generated by inserting five copies of the GAL4 response element upstream of the herpesvirus minimal thymidine kinase promoter and the luciferase reporter gene. The chimeric receptor expression plasmid and reporter plasmid were cotransfected into CV-1 cells. The transfected cells were cultured with or without each tested compound for 48 h and then steady-state luminescence intensity was measured with a microplate luminometer (Turner Biosystems). All compounds were purchased from Sigma-Aldrich and ChemPartner, and dissolved in dimethyl sulfoxide (<0.1% v/v). Each assay was carried out in triplicate.

Chains of the proteins cited; added tags and fusions are not shown. Residues count along the entry.
UniProt P37231, 238-503 limits assumed: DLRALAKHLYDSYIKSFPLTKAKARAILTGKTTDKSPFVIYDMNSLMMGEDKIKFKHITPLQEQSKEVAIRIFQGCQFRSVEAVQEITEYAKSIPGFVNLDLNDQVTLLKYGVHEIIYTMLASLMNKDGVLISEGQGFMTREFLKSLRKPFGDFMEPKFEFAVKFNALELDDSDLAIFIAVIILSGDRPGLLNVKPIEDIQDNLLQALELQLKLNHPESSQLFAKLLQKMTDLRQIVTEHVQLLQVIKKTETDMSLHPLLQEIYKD

The structures appear in SMILES notation.

In the case of `CN(CCOc1ccc(CC2SC(=O)NC2=O)cc1)c1ccccn1` (stereo not shown) [Rosiglitazone], the Agonistic intensity is 124%.

For the origin of these results see publication PMC6130577, “Rational screening of peroxisome proliferator-activated receptor-γ agonists from natural products: potential therapeutics for heart failure” (Pharmaceutical Biology, 2016).
